Antibody variant affinities, Ab-14 light chain, assay 1

Antigen: PDVDLGDISGINAS, a 14-residue peptide of the SARS-CoV-2 spike HR2 region.

Ab-14 is the parent antibody, in scFv form: VH, then the linker GGGGSGGGGSGGGGS, then VL. The heavy chain is unchanged in all variants.
VH: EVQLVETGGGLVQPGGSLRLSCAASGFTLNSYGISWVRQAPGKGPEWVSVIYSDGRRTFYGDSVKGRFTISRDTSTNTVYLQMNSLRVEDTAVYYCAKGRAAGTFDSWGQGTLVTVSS
VL: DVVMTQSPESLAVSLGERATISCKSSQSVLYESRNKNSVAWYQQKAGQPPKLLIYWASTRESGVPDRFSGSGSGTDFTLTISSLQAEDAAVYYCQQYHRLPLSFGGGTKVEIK

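The parent was found by panning a naive human phage display library on the peptide. Variants in AAYL50 differ from the parent at up to three CDR positions; double and triple changes were sampled at random. Affinity was read by AlphaSeq, a pooled yeast mating assay with surface-displayed partners. After mating in shaken culture at 30 °C for 16 h, diploids were selected and their barcode pairs sequenced. Read counts were normalised to the haploid input and turned into Kd by a linear fit to BCL2-family pairs of known affinity, for each replicate. Each pool was mated in three replicate cultures.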

Substitutions are numbered in sequence along the VL above, starting at 1 (not Kabat). Every variant below is changed at P101 of the VL (sequential numbering). Values are log10 of the apparent Kd in nM; lower means stronger binding. "ND" means that the variant was in the library but no mating with the target was seen in that replicate; the authors take this as a sign of poor binding, and no number exists.

- S25C+S33E+P101E: ND, ND, ND (controls 0 of 9)
- N37C+V39Y+P101S: ND, ND, ND (controls 0 of 9)
- S62C+P101I: 6.09, 4.88, ND (controls 2 of 9)
- N35P+E61R+P101W: ND, ND, 2.96 (controls 2 of 9)
- L30A+V39F+P101F: 5.20, 2.93, 3.84 (controls 3 of 9)
- A40K+S58K+P101A: ND, ND, ND (controls 2 of 9)
- N35R+W56N+P101R: 0.69, 0.91, 0.91 (controls 3 of 9)
- Y31M+P101M+S103K: ND, ND, ND (controls 3 of 9)
- K24R+S25P+P101Y: 4.06, ND, 4.05 (controls 5 of 9)
- E61N+R99V+P101D: 3.11, ND, ND (controls 0 of 9)
- K24G+V39P+P101A: 3.93, ND, 3.12 (controls 5 of 9)
- E61D+S62V+P101A: ND, ND, ND (controls 1 of 9)

A selection of 2 entries from above:

changes,"log10 Kd, replicates",empty controls
Y31M+P101M+S103K,"ND, ND, ND",3 of 9
A40K+S58K+P101A,"ND, ND, ND",2 of 9

In this assay the parent's reference entry averaged 0.65; its copy inside this library read 1.68. Three control strains display no target. For library AAYL50, 18% of the pairings with them gave a signal, with a median of 4.19 and one signal in twenty below 2.99, so weak values seen in few replicates may be background. For each scFv, signals with the empty controls are counted beside the result.

Data: MIT Lincoln Laboratory AlphaSeq set, Engelhart et al. 2022, doi:10.1038/s41597-022-01779-4, as distributed in FLAb.